Values quoted from earlier work, collected in patent publication US20130218474A1, “Benchmarks for Normal Cell Identification” (priority 2012, published 2013).
Like-named read-outs stand apart in the source and are kept apart here.

System: U87MG
Settings: cited from earlier work

CS(=O)(=O)N1CCN(Cc2cc3nc(-c4cccc5[nH]ncc45)nc(N4CCOCC4)c3s2)CC1 [GDC-0941]
IC50 (read-out: IC50 U87MG): 950 nM | IC50 (read-out: inhibition of U87MG cancer cell proliferation (IC50)): 950 nM
